Measurements from article PMC4440444 (Theranostics, 2015).

Test system: glioma
Conditions: patient No. 7, WHO grade IV; brain PET/CT

## ^18F-FDG
  T/NTmax (maximum target to non-target ratio): 1.36
